# PubChem BioAssay AID504810 (National Center for Advancing Translational Sciences (NCATS), 2011)
# Protein sequences, listed by entry. Tags and fused reporters are not part of them.
# UniProt P16473, whole entry: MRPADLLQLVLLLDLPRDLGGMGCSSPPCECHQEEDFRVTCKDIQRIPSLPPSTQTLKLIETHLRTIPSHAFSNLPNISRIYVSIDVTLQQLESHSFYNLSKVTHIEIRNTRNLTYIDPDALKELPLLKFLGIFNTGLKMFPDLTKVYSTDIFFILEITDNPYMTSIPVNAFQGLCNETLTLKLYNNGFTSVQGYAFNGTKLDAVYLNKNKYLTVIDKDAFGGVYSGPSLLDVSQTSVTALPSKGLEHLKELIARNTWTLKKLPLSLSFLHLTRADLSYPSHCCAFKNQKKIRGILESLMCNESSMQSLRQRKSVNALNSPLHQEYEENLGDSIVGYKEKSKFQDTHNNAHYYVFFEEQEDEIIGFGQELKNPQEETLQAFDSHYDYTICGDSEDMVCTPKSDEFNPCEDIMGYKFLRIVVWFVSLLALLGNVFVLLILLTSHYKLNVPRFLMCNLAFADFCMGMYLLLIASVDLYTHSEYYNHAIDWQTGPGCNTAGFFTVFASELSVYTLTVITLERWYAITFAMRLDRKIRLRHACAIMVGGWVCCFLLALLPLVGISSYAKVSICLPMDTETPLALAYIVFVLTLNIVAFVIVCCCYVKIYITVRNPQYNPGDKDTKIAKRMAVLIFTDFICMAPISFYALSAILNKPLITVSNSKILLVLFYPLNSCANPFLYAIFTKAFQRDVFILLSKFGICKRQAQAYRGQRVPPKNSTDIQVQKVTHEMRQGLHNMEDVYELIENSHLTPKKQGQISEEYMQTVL
# Only a part is listed here, and it is no random draw. Some salts and complexes are drawn in separate pieces, as the source files them; their charges need not balance. Active and inactive are the calls of the source.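 How the source made its calls: active means activity change below a set negative limit, meaning inhibition stronger than a set level (cut at about -70% in these data); inconclusive means activity change between two set negative limits; inactive means the rest.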
# Target: Thyrotropin receptor (Homo sapiens) (UniProt P16473)
# Experiment: Antagonists of the Thyroid Stimulating Hormone Receptor: HTS campaign
# Conditions: TSHR-expressing cells, TSH-stimulated cAMP HTRF, 2 h; at 11.5 µM; active compounds read low
# Excerpt: The thyroid-stimulating hormone receptor (TSHR) is a member of the 7 trans-membrane-spanning receptor (7TMR) family of cell surface receptors. TSHR-mediated hyperthyroidism is important in thyroid pathology. The development of small molecule antagonists of TSHR may lead to therapeutic approaches for TSHR-mediated hyperthyroidism caused by constitutively activating mutations or stimulating auto-antibodies associated with Graves' disease. Graves' disease is the leading cause of hyperthyroidism and is caused by autoantibodies that stimulate TSHR (TsAbs) causing thyroid growth and unregulated overproduction of thyroid hormones and existing treatments have liabilities (agranulocytosis). In addition, TSHRs are known to be expressed in multiple extrathyroidal tissues including bone, brain, kidney, testis, fat and cells of the immune system but the role of the TSHR in these tissues is not clear. Therefore, TSHR antagonists/inverse agonists could be used as probes of extrathyroidal TSHR function. Finally, TSHR inverse agonists, which are a subclass of antagonists that inhibit agonist-independent (or basal or constitutive) TSHR signaling, could be used to inhibit TSH-independent signaling in patients with recurrent or metastatic thyroid cancer who are receiving thyroid hormone to suppress TSH. In collaboration between scientist from the NCGC and the NIDDK, a miniaturized HTRF high-throughput screen was developed. It's a cell based assay, where an anti cAMP antibody contains a fluorescent cryptate tag (excitation 337 nm; emission 620 nm) and the acceptor is cAMP-d2 (excitation 620 nm; emission 665 nm). When antibody and cAMP-d2 interact and are excited by a 337 nm light, a FRET occurs resulting in emission at 665 nm. The assay is competition between cAMP-d2 and cAMP (from the cell lysate). The homogeneous protocol allows for one step dispense after stimulation that is automation friendly. NIH Chemical Genomics Center [NCGC] NIH Molecular Libraries Probe Centers Network [MLPCN] MLPCN Grant: MH090855-01 Assay Submitter (PI): Marvin Gerhengorn
# 1. 3ul of 200 TSHR freshly harvested cells/well are dispensed into a 1536 TC-treated white solid bottom plate. 2. Through pintool addition, 23nl of compounds and control in 100% DMSO are added to the plate. 3. Then 1ul of EC80 TSH (4nM final) is added to the plate. 4. Assay is incubated at 37 deg C for 2 hours. 5. 2ul of cAMP antibody diluted 1:20 in lysis buffer is added. 6. Immediately following, 2ul of d2 diluted 1:20 in HBSS is added seperately. 7. The assay is incubated for 30 minutes at ambient room temperature. 8. The result is obtained by using a ViewLux read-out with HTRF settings.
# On the % scale 0 is the no-effect control and ±100 the full control effect.
row,Structure (SMILES),"activity change, negative = inhibition"
1,O=C(NCC1(N2CCCCC2)CCCCC1)c1ccco1,inactive: 10.3%
2,CN(C)c1ccc(C(=O)NCC2(N3CCCCC3)CCCCC2)cc1,inactive: -2.32%
3,CCN1CCC(Nc2cccc(F)c2)CC1,inactive: 2.02%
4,Cc1ccc(C(=O)NCC2(N3CCCCC3)CCCCC2)o1,inactive: 0.769%
5,Fc1ccccc1NC1CCN(Cc2ccccc2)CC1,inactive: 6.35%
6,CCCOc1ccc(C)cc1CN(CCCl)CCCl,inactive: -6.33%
7,CN1CCC(Nc2ccc(Cl)cc2)CC1,inactive: 9.21%
8,CCC(CO)(C(=O)OC1CN2CCC1CC2)c1ccccc1 (stereo not drawn),inactive: -5.6%
9,COc1cccc(C(=O)N(c2cc(C)cc(C)c2)C2CCN(C(=O)OC(C)(C)C)CC2)c1,inactive: -9.14%
10,COc1cc(OC)cc(C(=O)NCC2(N3CCOCC3)CCCCC2)c1,inactive: -9.64%
11,CCCOc1ccc(C(=O)NCC2(N(C)C)CCCCC2)cc1,inactive: 6.27%
12,CC(C)(C)OC(=O)N1CCC(Nc2ccccc2)CC1,inactive: -4.76%
13,O=C(O)C1(Nc2ccccc2)CCN(Cc2ccccc2)CC1,inactive: 4.73%
14,CCOc1ncccc1C(=O)NCC1(N2CCOCC2)CCCCC1,inactive: 4.94%
15,CN1CCC(Nc2ccc(F)c(Cl)c2)CC1,inactive: 5.79%
16,O=C(OC1CN2CCC1CC2)C1c2ccccc2C=Cc2ccccc21 (stereo not drawn),inactive: 10.2%
17,CCc1cc(C(=O)NCC2(N3CCCCC3)CCCCC2)sc1C,inactive: 11%
18,O=C(O)c1cccc(Nc2c([N+](=O)[O-])cc([N+](=O)[O-])cc2[N+](=O)[O-])c1,inactive: -1.01%
19,N/C(=N\O)c1c(N)no[n+]1[O-],inactive: 7.4%
20,CCOC(=O)N1CCC(Nc2ccc(C)cc2)CC1,inactive: -3.34%
21,COc1ccc(C(=O)NCC2(N3CCOCC3)CCCCC2)cc1OC,inactive: -8.39%
22,O=C(NCC1(N2CCOCC2)CCCCC1)c1cc(Br)ccc1Cl,inactive: -0.582%
23,COc1cc(C(=O)NCC2(N3CCOCC3)CCCCC2)cc(OC)c1C,inactive: -6.89%
24,c1ccc(CN2CCC(Nc3ccccc3)CC2)cc1,inactive: 1.76%
25,CCCN1CCC(Nc2cc(OC)cc(OC)c2)CC1,inactive: -1.81%

row,Structure (SMILES),"activity change, negative = inhibition"
1,CN(C)C1(CNC(=O)c2cccc(C#N)c2)CCCCC1,inactive: -0.917%
2,CCOC(=O)C(CC)C1=NC(C)(C)Cc2ccccc21.O=[N+]([O-])c1cc([N+](=O)[O-])c(O)c([N+](=O)[O-])c1 (stereo not drawn),inactive: 0.142%
3,CC(C)(C)OC(=O)N1CCC(N(C(=O)c2ccccc2)c2ccc(Cl)cc2)CC1,inactive: -7.16%
4,N#Cc1ccc(C(=O)NCC2(N3CCCCC3)CCCCC2)cc1,inactive: 1.6%
5,COc1ccc(NC2CCN(C(=O)OC(C)(C)C)CC2)cc1,inactive: 15.1%
6,CC(C)c1ccc(C(=O)NCC2(N3CCOCC3)CCCCC2)cc1,inactive: 0.576%
7,CN1CCN(CCOC(=O)C(O)(c2ccccc2)c2ccccc2)CC1,inactive: 2.1%
8,O=C(NCC1(N2CCOCC2)CCCCC1)c1cc(=O)[nH]c2ccccc12,inactive: 5.61%
9,COc1cc(C(=O)NCC2(N3CCCCC3)CCCCC2)ccc1OC(F)F,inactive: -2.3%
10,O=C(NCC1(N2CCCCC2)CCCCC1)c1cccc(C(F)(F)F)c1,inactive: 0.378%
11,O=[N+]([O-])c1cc([N+](=O)[O-])c(NCC2CCS(=O)(=O)C2)c([N+](=O)[O-])c1 (stereo not drawn),inactive: 10.6%
12,CSc1ccc(C(=O)NCC2(N3CCOCC3)CCCCC2)cc1,inactive: 0.555%
13,O=C(NCC1(N2CCCCC2)CCCCC1)c1cccc([N+](=O)[O-])c1,inactive: -8.64%
14,CCN1CCC(Nc2ccc(Cl)cc2)CC1,inactive: 7.5%
15,N#CC1(Nc2ccccc2)CCN(CCc2ccccc2)CC1,inactive: -22.3%
16,O=C(NCC1(N2CCCCC2)CCCCC1)c1ccc(OC(F)F)cc1,inactive: 21.8%
17,CCCOc1ccc(C(=O)NCC2(N(C)C)CCCCC2)cc1OC,inactive: -0.794%
18,O=C(NCC1(N2CCCCC2)CCCCC1)c1cncc(Br)c1,inactive: 7.22%
19,COc1ccc2c(c1O)-c1c(O)c(OC)cc3c1[C@H](C2)[N+](C)(C)CC3.O=[N+]([O-])c1cc([N+](=O)[O-])c([O-])c([N+](=O)[O-])c1[O-],inactive: -8.26%
20,O=C(OC1CN2CCC1CC2)c1ccc([N+](=O)[O-])cc1 (stereo not drawn),inactive: 15.4%
21,COc1cc(OC)c(C(=O)NCC2(N(C)C)CCCCC2)cc1OC,inactive: 0.157%
22,O=C(NCC1(N2CCOCC2)CCCCC1)c1cc(F)c(F)cc1Cl,inactive: 12.2%
23,COc1ccc(CN(CCCl)CCCl)cc1Cl,inactive: 11.3%
24,CN(C)c1cccc(C(=O)NCC2(N3CCCCC3)CCCCC2)c1,inactive: -6.91%
25,O=[N+]([O-])c1cc([N+](=O)[O-])c(OC2CCCCC2O)c([N+](=O)[O-])c1 (stereo not drawn),inactive: -13%

row,Structure (SMILES),"activity change, negative = inhibition"
1,CC(C)c1ccc(NC2CCN(C(=O)OC(C)(C)C)CC2)cc1,inactive: -19.2%
2,CCOC(=O)N1CCC(Nc2ccc(OC)cc2)CC1,inactive: 2.85%
3,O=C(OC1CN2CCC1CC2)C1c2ccccc2Oc2ccccc21 (stereo not drawn),inactive: 20.7%
4,N#CC1(Nc2ccccc2)CCN(Cc2ccccc2)CC1,inactive: -0.356%
5,O=C(NCC1(N2CCCCC2)CCCCC1)c1ccc(Cl)s1,inactive: 5.38%
6,COc1ccc(Cl)cc1C(=O)NCC1(N2CCOCC2)CCCCC1,inactive: 12.6%
7,O=C(NCC1(N2CCOCC2)CCCCC1)c1cc2ccccc2o1,inactive: 5.69%
8,O=C(NCC1(N2CCCCC2)CCCCC1)c1ccc(Cl)nc1,inactive: 9.89%
9,Cc1cc(C)cc(N(C(=O)c2ccccc2)C2CCN(C(=O)OC(C)(C)C)CC2)c1,inactive: 3.77%
10,CSc1ccccc1C(=O)NCC1(N2CCCCC2)CCCCC1,inactive: -10.6%
11,O=C(NCC1(N2CCCCC2)CCCCC1)c1ccc(=O)[nH]c1,inactive: 8.76%
12,O=C(NCC1(N2CCCCC2)CCCCC1)c1cccs1,inactive: -0.346%
13,COc1ccc(C(=O)NCC2(N3CCCCC3)CCCCC2)cc1,inactive: 23.3%
14,COc1ccc(C(=O)NCC2(N3CCCCC3)CCCCC2)c(OC)c1OC,inactive: 18%
15,CC(C)(C)OC(=O)N1CCC(N(C(=O)c2ccccc2)c2ccc(F)cc2)CC1,inactive: 3.43%
16,COc1cc(C(=O)NCC2(N(C)C)CCCCC2)ccc1OC(F)F,inactive: -3.26%
17,CCOC(=O)N1CCC(Nc2cccc(C)c2)CC1,inactive: 0.413%
18,Cc1ccc(OCC(C)C)c(CN(CCCl)CCCl)c1,inactive: -0.856%
19,O=C(NCC1(N2CCCCC2)CCCCC1)c1ccc(F)cc1,inactive: 0.39%
20,CCCCOc1ccc(C(=O)NCC2(N3CCOCC3)CCCCC2)cc1,inactive: 0.0404%
21,CCOC(=O)N1CCC(Nc2ccc(F)cc2)CC1,inactive: 8.7%
22,COc1ccc(NC2CCN(CCc3ccccc3)CC2)c(OC)c1,inactive: -8.32%
23,CCOc1ccc(C)cc1CN(CCCl)CCCl,inactive: 2.59%
